# Earlier results as cited in US20130344170A1, “POLYMORPHISMS PREDICTIVE OF ANTHRACYCLINE- INDUCED CARDIOTOXICITY” (THE UNIVERSITY OF BRITISH COLUMBIA, priority 2006, published 2013).
# Tested on: human epidermal growth factor receptor 2 (HER2)-positive metastatic breast cancer
substance,measurement,setting,value
"HERCEPTIN: Genentech's HERCEPTIN, effective in HER2-positive metastatic breast cancer subjects",effectiveness in overall Phase III trial,overall Phase III trial population,not effective
same,effectiveness in genetic subset of subjects,subset of subjects with HER2-positive metastatic breast cancer,effective
